From the supplement of paper PMC10933113
Counter-ions that a name gives are not always drawn. ± gives the uncertainty stated by the source. This is a selection; strong and weak results do not stand in their true shares.

tested on: THP-1; assay: CD54 surface expression induction over DMSO control (% over DMSO); higher = stronger dendritic cell activation; conditions: exposure time: 24 h
Procedure: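 hCLAT-like CD54 and CD86 surface expression on THP1 cells after 24 h exposure at a single concentration (highest non-cytotoxic concentration, or 100-200 µM if not cytotoxic). Flow cytometry (iQue) was run on 5,000 live cells.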

Compound	CD54 surface expression induction
NNc1nncc2ccccc12 [Hydralazine hydrochloride] (10 µM)	-0.66 ± 4.2
C=CC(=O)OCCOc1ccccc1 [2-Phenoxyethyl acrylate] (100 µM)	-5.56 ± 3.6
Cn1c(=O)c2c(ncn2C)n(C)c1=O [Caffeine] (100 µM)	-4.37 ± 1.2
CCOC(=O)N1CCC(=C2c3ccc(Cl)cc3CCc3cccnc32)CC1 [Loratadine] (100 µM)	22.6 ± 23
Oc1ccc(O)cc1 [Hydroquinone] (10 µM)	11.7 ± 2.7
CN1CCCN=C1/C=C/c1cccs1 [Pyrantel tartrate] (100 µM)	-5.13 ± 0.88
